Source: PubChem
This is a sample that favours compounds with a hit; in the whole collection about 0.62% have one here.
Akt phos inh – Akt phosphorylation inhibition; Neuro2A IGF-stimulated pAkt S473 HTRF, 20 min; hits give low values; AID 651550; activity change, % for hits at 50 µM; 0.32% of 360,000 active; in the data active = activity change below about -80%; inconclusive = mostly about -51% to -80%
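Single-point screen (50 µM final compound) in Neuro2A cells stimulated 20 min with 6 nM IGF at 37 deg C. After lysis, Ser473-phosphorylated Akt read by HTRF (ex 330 nm, em 615/665 nm) as the 665/615 ratio.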
Rango dissoc inh – inhibition of RanGTP-driven Rango-importin beta dissociation | Biochemical FRET Rango-importin beta, RanGTP-induced dissociation | Potency, µM (highest dose often 46.1 µM) | 0.071% of 340,000 active | AID 540253; also: nearly all actives have a fitted effect of over 45% in size
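Rango FRET biosensor (snurportin-1 IBB flanked by N-terminal EYFP and C-terminal CFP10) at 0.1 uM, with 0.25 uM importin beta in PBS, 1mM DTT, 0.02% Tween-20, 0.1% BSA. 0.6 uM Ran, 2mM GTP and 0.2 uM RCC1 were then added for 45 min at room temperature. Inhibition read as loss of FRET rise.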
TSHR antag – human thyrotropin receptor antagonism; P16473; TSHR-expressing cells, TSH-stimulated cAMP HTRF, 2 h; hits give low values; activity change, negative = inhibition, % at 11.5 µM; 0.2% of 330,000 active;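 active = activity change below a set negative limit, meaning inhibition stronger than a set level, cut at about -70% in these data; inconclusive = activity change between two set negative limits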
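Cell-based HTRF cAMP assay; TSHR cells + compound, TSH EC80 (4nM final), 2 h, 37 deg C. Lysis with anti-cAMP cryptate and cAMP-d2, 30 min RT, read 665/620 nm.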
p53 reactivator – mutant p53 re-activation in reporter cells; AID 504706; Potency, µM (doses to about 92.2 µM), actives largely listed as activators; 0.063% of 320,000 active; H1299 p53-A138V BP100-luciferase reporter, luminescence, 24 h; active = well fitted activation curve with a large enough effect; inconclusive = small, poorly fitted or top-dose-only effect; inactive = no such curve, though single readings can be large or run the other way; also: nearly all actives have a fitted effect of over 45% in size
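H1299 (p53-null), stable ts p53-A138V + BP100-Luc; 1000 cells/well, Opti-MEM/10% FBS; cpd 4 pt, 1:5; 24 h, 37 deg C, 5% CO2; detection reagent 10 min RT; luminescence.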
Rango complex inh – Rango-importin beta binding inhibition; Potency, µM (top dose mostly 92.2 µM); 0.031% of 340,000 active; Rango CFP/YFP FRET sensor + importin beta, 45 min; Q14974; AID 540263; also: nearly all actives have a fitted effect of over 15% in size
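FRET biosensor Rango (snurportin 1 IBB between N-terminal EYFP and C-terminal Cerulean), 50 nM in PBS/1 mM DTT/0.02% Tween-20/0.1% BSA, preincubated 5 min RT with compound; 0.125 microM importin beta added, 45 min RT, CFP/YFP FRET ratio read.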
Each line names hits and unclear results; the compound was inactive in the other large screens; [ ] = remark or other dose. Unless noted, calls follow the shape of the full dose curve.

CNc1cc(Cl)c2nonc2c1[N+](=O)[O-]	TSHR antag -89
O=C(Cc1c(O)c2ccccc2oc1=O)c1ccc(F)cc1	p53 reactivator inconclusive
COc1ccc(COC(=O)CCNC(=O)c2ccc(Cl)cc2)cc1	Rango complex inh inconclusive
O=C1N(c2ccccc2)C(c2cccnc2)N2CCCN12 (configuration not stated)	none
CC(C)C12CN3CC(C(C)C)(CN(C1)C3c1cccnc1)C2=O (configuration not stated)	Akt phos inh -108%
COc1ccc2c(c1)c(CCN1CCOCC1)c(C)n2C(=O)c1cccc(Cl)c1Cl	none (no result: Akt phos inh, Rango dissoc inh, p53 reactivator, Rango complex inh)
Cc1ccc(C(=O)Cn2c(-c3ccccc3)noc2=O)cc1	Rango complex inh inconclusive
Oc1cccc(/C=N/NP(=S)(c2ccccc2)c2ccccc2)c1	Akt phos inh -117%
CC1(C)C[C@H]2C=C(C=O)[C@]3(C=O)C[C@]3(C)[C@H]2C1	TSHR antag -87
CCOC(=O)[C@]1(C#N)[C@@H]2C=CC(C(C)=O)=CN2[C@@H](C(N)=O)[C@@H]1c1ccsc1	Akt phos inh -106%, Rango dissoc inh inconclusive, Rango complex inh inconclusive
COC(=O)c1ccccc1OC(=O)c1ccc(Br)o1	Rango complex inh inconclusive
COC(=O)C1=C(c2ccc(-c3ccccc3)c(F)c2)C[C@@H]2CC[C@H]1N2C(=O)NCCOc1ccccc1	TSHR antag -89
O=C(N/N=C/c1c(O)n(C2CC2)c(=S)[nH]c1=O)c1ccccc1O	Rango dissoc inh inconclusive, p53 reactivator 6.3µM, Rango complex inh inconclusive
CC1(O)CCC2C3CCC4=CC(=O)CCC4=C3C=CC21C (configuration not stated)	none (no result: TSHR antag, p53 reactivator)
COCOC1CCC2C3CCC4=CC(=O)CCC4=C3C=CC12C (configuration not stated)	Rango dissoc inh 21µM, Rango complex inh inconclusive (no result: TSHR antag, p53 reactivator)
O=C(c1ccc(N2CCN(CCO)CC2)nc1)N1CCOCC1	p53 reactivator inconclusive
CC(=NCCN1CCCCC1)c1c(O)n(Cc2ccccc2)c(=O)[nH]c1=O	none
CC(=NCCCN1CCCCC1)c1c(O)n(Cc2ccccc2)c(=O)[nH]c1=O	Akt phos inh -116%
CCOP(=O)(OCC)/C(C#N)=C/c1cc(OC)ccc1OC	Rango dissoc inh inconclusive, Rango complex inh inconclusive
Cc1cccc(N2C(=O)/C(=C/c3ccc(CN(CCC#N)S(C)(=O)=O)o3)C(=O)NC2=S)c1	Rango dissoc inh 23µM, Rango complex inh inconclusive
Nc1ccc(-c2ccccc2)cc1	none (no result: TSHR antag, p53 reactivator)
Nc1ccc(C2(c3ccc(N)cc3)c3ccccc3-c3ccccc32)cc1	TSHR antag -102
CC(=NCCC1=CCCCC1)c1c(O)[nH]c(=O)[nH]c1=O	Akt phos inh -121%
C=CCN1C(=O)/C(=C\c2ccc(N3CCOCC3)o2)C(=O)NC1=S	Rango complex inh 65µM
CN=C(SCc1ccccc1)c1c(O)n(C)c(=O)n(C)c1=O	Akt phos inh -108%
CCCCNC(=O)/C(C#N)=c1\s/c(=C\c2ccccc2OC(F)F)c(=O)n1CCCOC	Rango dissoc inh inconclusive
CN(C)CCCN=Cc1c(O)n(CCc2ccc(F)cc2)c(=O)[nH]c1=O	Akt phos inh -120%
CN1CCc2nc(SCc3cccc(Br)c3)c(C#N)cc2C1	Rango dissoc inh 16µM, Rango complex inh inconclusive
O=c1[nH]c(=O)n(Cc2ccco2)c(O)c1C=NCc1cccs1	Akt phos inh -93% (no result: TSHR antag, p53 reactivator)
Cc1cc(=O)n2[nH]c(C)cc2n1	none
N=C1/C(=C/c2ccc(OC(=O)c3ccco3)cc2)C(=O)N=C2SC=CN12	Rango dissoc inh inconclusive, Rango complex inh inconclusive
c1ccc(CN2CCN(Cc3ccc4ccccc4c3)CC2)cc1	none (no result: p53 reactivator)
N#Cc1c(Cl)nc(Cl)c2c1CCN(Cc1ccccc1)C2	Rango dissoc inh 5.2µM[inhibitor], Rango complex inh inconclusive
C[C@@H]1C(=O)O[C@H]2C[C@@]34[C@H]5C[C@@H](C(C)(C)C)[C@]36[C@@H](OC(=O)[C@@H]6O)O[C@@]4(C(=O)O5)[C@]21O	none
COC(=O)[C@H]1[C@H]2C[C@@H]3c4[nH]c5cc(OC)ccc5c4CCN3C[C@H]2C[C@@H](OC(=O)/C=C/c2cc(OC)c(OC)c(OC)c2)[C@@H]1OC	Rango dissoc inh 5.8µM, Rango complex inh inconclusive
O=C1OC(=O)C2C3CCC(O3)C12 (configuration not stated)	none (no result: Akt phos inh, Rango dissoc inh, Rango complex inh)
